Data on four compounds can be found in ChEMBL document CHEMBL1152815, “Synthesis and evaluation of imidazole-dioxolane compounds as selective heme oxygenase inhibitors: effect of substituents at the 4-position of the dioxolane ring” (Bioorg Med Chem, 2009).

Each structure is given as a SMILES string.

The species named for the test is Rattus norvegicus. Kind of test: Selectivity index, ratio of IC50 for Sprague-Dawley rat brain heme oxygenase-2 to IC50 for Sprague-Dawley rat spleen heme oxygenase-1. The test is classed as tissue-based.

For the compound `Clc1ccc(CC[C@@]2(Cn3ccnc3)OC[C@@H](CSc3ccc(Cl)cc3)O2)cc1`, the Ratio IC50 is 4.3.
In the case of `Fc1ccc(SC[C@@H]2CO[C@@](CCc3ccc(Cl)cc3)(Cn3ccnc3)O2)cc1`, the Ratio IC50 was 2.
On to `O=[N+]([O-])c1ccc(SC[C@@H]2CO[C@@](CCc3ccc(Cl)cc3)(Cn3ccnc3)O2)cc1`, for which the Ratio IC50 stood at 3.
To `Clc1ccc(CC[C@@]2(Cn3ccnc3)OC[C@@H](CSc3ccc4ccccc4c3)O2)cc1` belongs 30.
